Values of other authors in patent publication US10736883B2, “Triazole furan compounds as agonists of the APJ receptor” (AMGEN INC., priority 2016, dated 2020).

The chains behind the UniProt entries cited, without tags or fusion partners. Where a name states a change or a piece, a line headed by the entry shows the natural chain unless it says otherwise.
UniProt P35414: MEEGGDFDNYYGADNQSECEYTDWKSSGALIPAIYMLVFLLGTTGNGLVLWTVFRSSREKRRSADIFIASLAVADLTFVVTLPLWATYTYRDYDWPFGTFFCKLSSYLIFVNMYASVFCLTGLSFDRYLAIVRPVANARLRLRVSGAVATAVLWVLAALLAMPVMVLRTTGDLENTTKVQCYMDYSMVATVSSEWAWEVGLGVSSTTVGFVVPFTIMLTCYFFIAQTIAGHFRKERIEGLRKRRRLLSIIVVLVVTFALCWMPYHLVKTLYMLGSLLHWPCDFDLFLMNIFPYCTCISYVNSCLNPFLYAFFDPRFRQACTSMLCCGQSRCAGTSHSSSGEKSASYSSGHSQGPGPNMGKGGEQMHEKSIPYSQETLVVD

Legend:
APJ receptor [1] = target: T1, APJ receptor (Homo sapiens (Human), UniProt P35414); details: apelin-36, apelin-17 and apelin-13 compared; cited from earlier work
APJ receptor [2] = target: T1, APJ receptor; details: fold higher than apelin-36; cited from earlier work

For Apelin-13, the “in vitro activity (relative potency)” value (APJ receptor [1]) is given as “approximately equipotent” and the “in vitro affinity to the APJ receptor relative to apelin-36” value (APJ receptor [2]) is given as about 3.5 fold.
